Test results as given in patent publication US7498406B2, “Substantially cell membrane impermeable compound and use thereof” (priority 1999, dated 2009).

Test system: BAE cells
Conditions: read-out: IC50 for viability; 24 hours, complete medium

Row | Substance | IC50 [µM]
1 | phenylarsenoxide | < 0.1
2 | a mixture of 4-(N-(6-(fluorescein-5-carboxamido)hexanoyl)amino)phenylarsenoxide and 4-(N-(6-(fluorescein-6-carboxamido)hexanoyl)amino)phenylarsenoxide | > 200
